Test results from patent publication US6482849B1, “Inhibitors of α4β1 mediated cell adhesion” (Tanabe Seiyaku Co., Ltd., priority 1997, dated 2002).

Protein sequences, listed by entry. Tags and fused reporters are not part of them. Residues count along the entry.
UniProt P05556, 21-798 limits assumed: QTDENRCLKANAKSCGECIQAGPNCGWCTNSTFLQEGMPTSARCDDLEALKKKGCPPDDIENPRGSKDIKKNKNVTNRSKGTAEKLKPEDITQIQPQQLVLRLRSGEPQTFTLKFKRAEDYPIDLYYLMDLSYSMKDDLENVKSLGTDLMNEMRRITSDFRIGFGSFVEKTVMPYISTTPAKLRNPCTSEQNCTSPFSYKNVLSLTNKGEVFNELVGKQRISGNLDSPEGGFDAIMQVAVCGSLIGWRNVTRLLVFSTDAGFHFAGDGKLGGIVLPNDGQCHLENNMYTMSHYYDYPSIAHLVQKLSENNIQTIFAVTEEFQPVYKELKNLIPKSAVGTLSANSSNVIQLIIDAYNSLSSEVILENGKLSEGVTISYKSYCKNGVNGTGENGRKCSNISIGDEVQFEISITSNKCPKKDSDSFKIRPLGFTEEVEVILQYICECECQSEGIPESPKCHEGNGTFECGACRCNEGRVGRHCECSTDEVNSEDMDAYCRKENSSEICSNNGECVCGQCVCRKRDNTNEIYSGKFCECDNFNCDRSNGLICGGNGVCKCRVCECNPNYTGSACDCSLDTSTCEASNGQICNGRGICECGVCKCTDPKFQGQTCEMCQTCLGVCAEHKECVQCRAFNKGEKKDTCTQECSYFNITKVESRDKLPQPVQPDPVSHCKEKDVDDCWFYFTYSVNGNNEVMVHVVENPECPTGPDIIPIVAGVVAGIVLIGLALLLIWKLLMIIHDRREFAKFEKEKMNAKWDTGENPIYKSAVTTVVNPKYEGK
UniProt P13612, 34-1032 limits assumed: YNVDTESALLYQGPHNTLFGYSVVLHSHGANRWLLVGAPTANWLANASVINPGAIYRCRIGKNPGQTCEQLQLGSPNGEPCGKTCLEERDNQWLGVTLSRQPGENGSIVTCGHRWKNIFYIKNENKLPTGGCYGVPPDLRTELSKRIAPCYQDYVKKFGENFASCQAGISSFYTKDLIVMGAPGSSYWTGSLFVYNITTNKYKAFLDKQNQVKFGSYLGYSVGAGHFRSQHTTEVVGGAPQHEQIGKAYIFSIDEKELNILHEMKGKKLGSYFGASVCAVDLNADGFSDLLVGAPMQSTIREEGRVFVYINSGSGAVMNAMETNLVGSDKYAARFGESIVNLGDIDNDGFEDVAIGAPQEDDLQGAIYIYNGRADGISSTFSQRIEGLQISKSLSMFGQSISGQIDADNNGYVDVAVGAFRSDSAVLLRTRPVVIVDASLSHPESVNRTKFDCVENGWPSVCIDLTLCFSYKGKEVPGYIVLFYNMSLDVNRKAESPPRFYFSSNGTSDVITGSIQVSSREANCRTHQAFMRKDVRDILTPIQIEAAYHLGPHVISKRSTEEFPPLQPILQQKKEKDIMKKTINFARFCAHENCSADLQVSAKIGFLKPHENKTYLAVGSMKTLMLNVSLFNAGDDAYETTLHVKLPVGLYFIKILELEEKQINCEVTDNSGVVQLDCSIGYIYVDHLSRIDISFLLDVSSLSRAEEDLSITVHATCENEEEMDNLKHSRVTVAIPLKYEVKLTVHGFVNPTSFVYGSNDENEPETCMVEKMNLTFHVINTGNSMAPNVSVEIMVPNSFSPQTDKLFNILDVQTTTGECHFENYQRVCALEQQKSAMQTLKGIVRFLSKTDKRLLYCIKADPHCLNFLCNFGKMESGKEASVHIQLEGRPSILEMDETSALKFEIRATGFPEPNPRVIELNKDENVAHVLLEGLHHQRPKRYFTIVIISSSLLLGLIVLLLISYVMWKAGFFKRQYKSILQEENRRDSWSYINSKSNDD

Assays:
[1] = biological target: α4β1 integrin (Jurkat T-cell adhesion to IL-1 stimulated endothelial cell monolayers) (Homo sapiens, UniProt P05556+P13612); experiment: Jurkat-Endothelial Cell Adhesion Assay (Jurkat EC); conditions: read-out: IC50 Jurkat EC; Jurkat cells on IL-1 stimulated HUVEC monolayers
Method: The following assay established the activity of the present compounds in inhibiting β1-mediated cell adhesion in a representative in vitro system. This assay measures the adhesive interactions of a T-cell line, Jurkat, known to express the α4β1 integrin, to endothelial monolayers in the presence of test compounds. The test compounds were added in increasing concentrations to T-cells and then the T-cell compound mixture was added to IL-1 stimulated endothelial cell monolayers. The plates were incubated, washed and the percentage of attached cells was quantitated. […] Human umbilical vein endothelial cells were purchased from Clonetics (San Diego, Calif.) at passage number 2. The cells were grown on 0.5% porcine skin gelatin pre-coated flasks (Sigma, St. Louis Mo.) in EGM-UV media (Clonetics, San Diego, Calif.) supplemented with 10% fetal bovine serum. Cells are refed every 2-3 days reaching confluence by day 4 to 6. […] The endothelial cells are not used following passage 6. Am The T-cell line Jurkat was obtained from American Type Tissue Culture Collection (Rockville, Md.) and the cells were cultured in RPMI containing 10% fetal calf serum. The cells were washed twice in Hank's Balanced Salt Solution (HBSS) and resuspended in Dulbecco's […] Eagle's Media (DMEM) containing 2.5 mg/ml Human Serum Albumin (HSA). Jurkat cells (1×10^6 cells/ml) were stained with 10 ng/ml BCECF-AM z z (Molecular Probes, Eugene, Ore.)) in HBSS without phenol red. The cells were loaded with BCECF for 60 minutes in the dark at 37° C., washed 2 times, and resusupended in DMEM-HSA solution.
Confluent endothelial monolayers, grown in 96-well tissue culture plates, were stimulated for 4 hr. at 37° C. with 0.1 ng/ml (˜50 U/ml) recombinant IL-1 (Amgen, Thousand Oaks, Calif.). Following this incubation, the monolayers were washed twice with HBSS and 0.1 ml of DMEM-HSA solution was added. Jurkat cells (5×10^5 cells) were combined with the appropriate concentration of the test compound and 0.1 ml of the Jurkat cell-compound mixture was added to the endothelial cell monolayers. Generally, 100, 20, 5 and 1.25 μM compound concentrations were tested. […] The plates were placed on ice for 5 minutes to allow for Jurkat cell settling and the plates were incubated at 37° C. for 20 minutes. Following this incubation, the monolayers were washed twice with PBS containing 1 mM calcium chloride and 1 mM magnesium chloride and the plates were read using a Millipore Cytofluor 2300 (Marlboro, Mass.). Fluorescence in each well was measured as Arbitrary Fluorescence Units and percent adhesion in the absence of compound was adjusted to 100% and the % adhesion in the presence of compound was calculated. Monolayers were also fixed in 3% paraformaldehyde and evaluated microscopically to verify the adhesion. This procedure is a modification of a previously published method (Cardarelli et al., J. Biol. Chem. 269:18668-18673 (1994)).

[2] = biological target: α4β1 integrin (Jurkat cell adhesion to immobilized CS-1 derived peptide CLHPGEILDVPST) (Homo sapiens, UniProt P05556+P13612); experiment: Jurkat-CS-1 Assay; conditions: read-out: IC50 Jurkat CS-1; Jurkat cells on CS-1 peptide coated plates
Method: The CS-1 derived peptide, CLHPGEILDVPST, and the scrambled control peptide, CLHGPIELVSDPT, were synthesized on a Beckman 990 synthesizer using t-Boc methodology. The peptides were immobilized onto microtiter plates using the heterobifunctional crosslinker 3-(2-pyridyldithio)propionic acid N-hydroxysuccinimide ester (SPDP) as reported by Pierschbacher et al., Proc. Natl. Acad. USA, 80:1224-1227 (1983). Microtiter plates were coated with 20 μg/ml HSA for 2 hr. at room temperature, washed once with PBS and derivatized with 10 μg/ml SPDP for 1 hr. After washing, 100 μl of a 100 μg/ml cysteine containing peptide solution which had been recently dissolved was added to the wells and allowed to crosslink to the plates overnight at 4° C. Unbound peptide was removed from plates by washing with PBS. To block non-reacted sites, the plates are coated with 100 μl of a 2.5 mg/ml BSA solution in PBS for 1 hr. at 37° C. 100 μl of Jurkat cells (2.5×10^6 cells/ml) in DMEM plus BSA (2.5 mg/ml) was mixed with an appropriate concentration of the compound to be tested and the mixture was added to peptide coated dishes and incubated for 1 hr. at 37° C. Generally 100, 20, 5 and 1.25 μM concentrations of the compound were tested.
Following this incubation the plates were washed once with PBS and the attached cells were fixed with 3% paraformaldehyde in PBS and stained with 0.5% toluidine blue in 3.7% formaldehyde. The cells were stained overnight at room temperature and the optical density at 590 nm of toluidine blue stained cells was determined using a vertical pathway spectrophotometer to quantitate attachment (VMAX Kinetic Microplate Reader, Molecular Devices, Menlo Park, Calif.). This procedure is a modification of a previously published method (Cardarelli et al, J. Biol. Chem., 269:18668-18673 (1994) and Cardarelli et al, Proc. Natl. Acad. Sci. USA, 83:2647-2651 (1986)).

| IC50 [1] | SMILES | IC50 [2] |
| --- | --- | --- |
| 5 to 10 µM | COC(=O)[C@H](Cc1ccc(NC(=O)c2cc(Br)ccc2Br)cc1)NC(=O)[C@H]1CC[C@@](C)(C(=O)O)C1(C)C |  |
|  | COC(=O)[C@H](Cc1ccc(NC(=O)c2cc(Cl)ccc2Cl)cc1)NC(=O)[C@H]1CC[C@@](C)(C(=O)O)C1(C)C | 0.5 to 1 µM |
| 0.8 to 5 µM | CN(C)C(=O)[C@]1(C)CC[C@H](C(=O)N[C@@H](Cc2ccc(OCc3c(Cl)cccc3Cl)cc2)C(=O)O)C1(C)C |  |
|  | COC(=O)[C@H](Cc1ccc(NC(=O)c2ccc(Cl)c(Cl)c2)cc1)NC(=O)[C@H]1CC[C@@](C)(C(=O)O)C1(C)C | 0.5 to 1 µM |
| 5 to 10 µM | COC(=O)[C@H](Cc1ccc(OCc2c(Cl)cccc2Cl)c([N+](=O)[O-])c1)NC(=O)[C@H]1CC[C@@](C)(C(=O)O)C1(C)C |  |

| SMILES | IC50 [1] | IC50 [2] |
| --- | --- | --- |
| COC(=O)[C@H](Cc1ccc(NC(=O)c2c(C)cccc2Cl)cc1)NC(=O)[C@H]1CC[C@@](C)(C(=O)O)C1(C)C | 0.8 to 5 µM | 0.08 to 0.5 µM |
| CC1C(C(=O)Nc2ccc(C[C@H](NC(=O)[C@H]3CC[C@@](C)(C(=O)O)C3(C)C)C(=O)O)cc2)=Cc2ccccc21 (stereo partly drawn) | < 0.8 µM | < 0.08 µM |
